Assay results as given in paper PMC10891983, “First Description of Marinoquinoline Derivatives’ Activity against Toxoplasma gondii” (Pharmaceutics, 2024).

System: T. gondii tachyzoites
Type: cell-based, Toxoplasma gondii
Conditions: CC50 (HFF)/EC50 (T. gondii)

SMILES: CCc1nc(N)nc(N)c1-c1ccc(Cl)cc1 [PYR, pyrimethamine, reference compound]
- SI (Selectivity index): 237.65
- SI (Selectivity index) (listed as pyrimethamine): > 10

Like-named read-outs stand apart in the source and are kept apart here.
